# Earlier results, collected in article PMC3463529.
# Biological target: GFP (Aequorea victoria) [GFP: P42212]
# Experiment: analytical ultracentrifugation
# Details: cited from earlier work
substance,measurement,value
GFP (from UniProt P42212),Kd,100 µM
